Measured values: US20030215462A1, “Use of UGT inhibitors to increase bioavailability” (priority 2001, published 2003)

Biological target: T1, UGT enzymes of human liver microsomes (Homo sapiens, UniProt P16662)
T1 construct: residual metabolism (percentage of control), zidovudine glucuronidation; other: liver lot 062101; residual metabolism (percentage of control), zidovudine glucuronidation; residual metabolism (percentage of control)
T1 sequence (P16662 1-529): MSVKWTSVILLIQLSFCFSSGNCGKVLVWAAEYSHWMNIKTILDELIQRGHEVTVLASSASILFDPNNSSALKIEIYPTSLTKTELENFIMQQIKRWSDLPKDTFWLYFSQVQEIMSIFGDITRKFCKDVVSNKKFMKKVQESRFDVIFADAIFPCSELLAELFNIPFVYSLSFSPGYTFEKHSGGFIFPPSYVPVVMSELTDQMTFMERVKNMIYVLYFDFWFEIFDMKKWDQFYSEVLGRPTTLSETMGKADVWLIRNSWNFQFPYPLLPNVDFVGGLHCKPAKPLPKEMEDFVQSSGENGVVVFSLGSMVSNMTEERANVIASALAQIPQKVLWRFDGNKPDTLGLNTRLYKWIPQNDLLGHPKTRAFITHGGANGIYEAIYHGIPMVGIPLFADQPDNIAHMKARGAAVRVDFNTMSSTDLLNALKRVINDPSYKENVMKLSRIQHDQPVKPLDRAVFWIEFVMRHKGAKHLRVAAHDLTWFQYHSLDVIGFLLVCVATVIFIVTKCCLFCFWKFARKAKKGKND
Assay: Inhibition of zidovudine glucuronidation in human liver microsomes
Format: biochemical
Conditions: liver lot 062101

## O=C(O)Cc1ccccc1Nc1c(Cl)cccc1Cl [Diclofenac, reference compound]
Inhibitor 50 μM
  residual metabolism (percentage of control), zidovudine glucuronidation: 74 (1) %
Inhibitor 100 μM
  residual metabolism (percentage of control), zidovudine glucuronidation: 64 (2) %
Inhibitor 200 μM
  residual metabolism (percentage of control), zidovudine glucuronidation: 52 (2) %
Inhibitor 500 μM
  residual metabolism (percentage of control), zidovudine glucuronidation: 21 (1); 21 (1) %
